Measured values taken from patent US20240122893A1 (priority 2021, published 2024).

Assays:
SARS-CoV-2 = test: CPE inhibition assay, SARS-CoV-2 strains in Vero C1008 cells; format: cell-based
SARS-CoV-2/USA/WI1/2020 = conditions: 30 mg/kg daily; P=0.01

In the case of `C[S+]([O-])CCCCN=C=S` (centres unmarked) [SFN, sulforaphane], the “TI50, therapeutic index (virus selectivity)” value (SARS-CoV-2) is reported as 7 and the “SARS-CoV-2 spike protein immunostaining, % lung area, fold lower than infected untreated” value (SARS-CoV-2/USA/WI1/2020) is reported as 4.4 × and 4.41 ×.

Values joined by “and” are separate entries in the source; they are usually repeats but may differ in a detail not shown here. Equal values may be shown once.
